Values of other authors in patent US20180333418A1, “USE OF PAN FGFR INHIBITORS AND METHOD OF IDENTIFYING PATIENTS WITH CANCER ELIGIBLE FOR TREATMENT WITH A PAN FGFR INHIBITOR” (BAYER PHARMA AKTIENGESELLSCHAFT, priority 2014, published 2018).

System: circulating tumor cells of an ovarian cancer patient with FGFR2 fusion
Settings: FGFR2 fusion in an ovarian cancer patient; Martignetti et al.; cited from earlier work

For `CCN1CCN(c2ccc(Nc3cc(N(C)C(=O)Nc4c(Cl)c(OC)cc(OC)c4Cl)ncn3)cc2)CC1` [BGJ398], the “sensitivity of circulating tumor cells to treatment” value is given as “sensitive”.
